The values that follow are results of earlier work, collected in publication PMC12520553.

pKd: −log10 of the molar value. Like-named read-outs stand apart in the source and are kept apart here.

The target in data set [1] is RAGE V domain (Homo sapiens) (UniProt Q15109).
Data set [2] has the same target. The source holds these as a separate data set.

For the substance S100A6 (from UniProt P06703), the pKd – broadly, the Kd on a negative log10 scale, so that one unit is a factor of ten – in data set [1] is 5.52.
Turning to “soluble Amyloid-beta (from UniProt P05067)”, the pKd in data set [2] was 7.28.
